From patent US12104181B2, “Compositions and methods for treating viral infections targeting TRIM7” (THE BOARD OF REGENTS OF THE UNIVERSITY OF TEXAS SYSTEM, priority 2021, dated 2024)

Test system: coxsackievirus B3 (CVB3-GFP)
Format: cell-based
Settings: HeLa cells, replicate R1

BIRC4: human RING type E3 ligase expressed from lentiviral vector
Percent Infected R1 (GFP-positive cells within RFP-positive gate): 96.9%
Z score R1: 0.106
